# Experimental data reported in paper PMC3041239 (Journal of Medicinal Chemistry, 2011).
# System: rats
# Test: Tail-flick test in the rat after sc administration
Compound,"peak of action, time postinjection",antinociceptive potency relative to derivative 18 (more potent than 18)
"Cl.Cl.O=C(O)CN[C@@H]1CC[C@@]2(OCCCc3ccccc3)[C@H]3Cc4ccc(O)c5c4[C@@]2(CCN3CC2CC2)[C@H]1O5 [Compound 18, [[17-Cyclopropylmethyl-4,5α-epoxy-3-hydroxy-14β-[(3-phenylpropyl)oxy]morphinan-6β-yl]amino]acetic Acid Dihydrochloride]",two hours,–
CC(C)(C)OC(=O)CN[C@@H]1CC[C@@]2(OCCCc3ccccc3)[C@H]3Cc4ccc(O)c5c4[C@@]2(CCN3CC2CC2)[C@H]1O5 [Compound 16],–,about 6 fold
